scFv variants of Ab-14 (light chain) against a SARS-CoV-2 spike peptide

From the AlphaSeq antibody data of Engelhart et al. 2022 (doi:10.1038/s41597-022-01779-4), copy in the FLAb collection.

Target: peptide PDVDLGDISGINAS, taken from heptad repeat 2 (HR2) of SARS-CoV-2 spike.

Ab-14 is the parent antibody, in scFv form: VH, then the linker GGGGSGGGGSGGGGS, then VL. The heavy chain is unchanged in all variants.
VH: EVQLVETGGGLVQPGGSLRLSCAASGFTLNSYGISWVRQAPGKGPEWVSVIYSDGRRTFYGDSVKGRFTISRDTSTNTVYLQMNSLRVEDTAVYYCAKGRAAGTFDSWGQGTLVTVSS
VL: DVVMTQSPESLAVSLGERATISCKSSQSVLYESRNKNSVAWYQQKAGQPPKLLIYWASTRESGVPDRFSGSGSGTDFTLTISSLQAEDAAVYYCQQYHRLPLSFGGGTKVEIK

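AAYL50 was designed without a model: most single CDR substitutions and a random sample of double and triple ones. The assay is AlphaSeq: two haploid yeast populations carry antibody and antigen on their surface. After mating in shaken culture at 30 °C for 16 h, diploids were selected and their barcode pairs sequenced. The ratio of observed to expected reads was calibrated, replicate by replicate, on BCL2-family standards whose Kd was known from biolayer interferometry. Each pool was mated in three replicate cultures.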

The parent's light chain CDRs are KSSQSVLYESRNKNSVA, WASTRES, QQYHRLPLS; each variant's own CDRs replace them letter for letter. Kd is apparent (estimated from mating counts) and averaged on the log scale over replicates with a signal. Smaller is tighter. A pair that was not seen in any replicate is written "no signal"; this usually means weak binding, but a binder can also be missed.

CDR-L1	CDR-L2	CDR-L3	apparent Kd	detected
KSSQSVLYESRNKNSVA	HASHRES	QQYHRLPRS	no signal	0 of 3
KISQSVLYDSRNKNSVA	WASTRES	QQYHRLSLS	6.8 µM	1 of 3
KISQSVLYEYRNKNSVA	WRSTRES	QQYHRLPLS	22 nM	3 of 3
KSSQSVLYESRNKPSCA	WASTRES	QQVHRLPLS	2.2 µM	1 of 3
KSSGSKLYESRNKNSVA	WASTRES	IQYHRLPLS	no signal	0 of 3
KSSQSVLYGSRNKNSVA	WASTFES	QQYHELPLS	no signal	0 of 3
KSEQSVLHETRNKNSVA	WASTRES	QQYHRLPLS	470 nM	3 of 3
KSSQPVPYESRNKYSVA	WASTRES	QQYHRLPLS	4.0 nM	3 of 3
DGSQSVLYESYNKNSVA	WASTRES	QQYHRLPLS	320 nM	1 of 3
KSSQSVLYESRHKNSVA	WASTRES	HQYHELPLS	22 nM	3 of 3
KSSQSPLYESRNKNSVK	WASTRES	QQYHRLPLS	16 µM	1 of 3
KSSQSVLFESRNVNSVG	WASTRES	QQYHRLPLS	1.8 µM	1 of 3
KSNQSVLYESRNKNSVA	WASTREH	QQMHRLPLS	520 nM	3 of 3
ESSQGVLYESRNKNSVA	WASTRES	QQYHELPLS	4.3 nM	3 of 3
KSKQSVLYESRTKNSVA	WASTRHS	QQYHRLPLS	700 nM	3 of 3
KRSQSVLGESRNKNSVA	WASTRES	QQYHRLPWS	17 nM	3 of 3
GSSQSVLYESYNKYSVA	WASTRES	QQYHRLPLS	69 µM	3 of 3
KSSQSVLYESRNKNSVA	WASTIMS	QQYHILPLS	170 nM	3 of 3
KSPQSVQYESRNKNSVA	WASTRES	QQYHRLRLS	no signal	0 of 3
KSSQSVLYESRNGNSVA	WASTRYS	QQYLRLPLS	8.6 nM	3 of 3
KHSQSVLYESRNKNRVA	WASTRES	QQYHRLPLV	670 nM	2 of 3
KSSQSVLYESRNKNSVS	WASTRES	QQYHFLPLS	no signal	0 of 3
KSSQSVILESRNKNSVA	WASTSES	QQYHRLPLS	no signal	0 of 3
KSEQSVLYESRSKNSVA	AASTRES	QQYHRLPLS	710 nM	1 of 3
KSSQSVLAESRWKNSVA	WASTRES	QLYHRLPLS	no signal	0 of 3
KSSQSVLYESRNKNSFA	WAQTRES	TQYHRLPLS	no signal	0 of 3
KSSQSVLYESRNKRWVA	WAQTRES	QQYHRLPLS	260 µM	1 of 3
SSSQSVLYESRNKNSVA	WASTRES	QQYHEPPLS	4.6 nM	3 of 3
RSSQSVLYFSRNKNSVA	WASTREY	QQYHRLPLS	no signal	0 of 3
KSSQQVLYQSRNKNSVA	WASTRES	QQYNRLPLS	19 nM	3 of 3
KSSQHVLYESRNKNSVA	WASDRES	QQYHRLPYS	no signal	0 of 3
KSWYSVLYESRNKNSVA	WASTRES	QQYHSLPLS	200 nM	1 of 3
KSSQSVRYESRNKESVA	WASTGES	QQYHRLPLS	no signal	0 of 3

Further variants, results first:

apparent Kd	detected	CDR-L1	CDR-L2	CDR-L3
610 µM	1 of 3	KSSQSVLYESRWKQSVA	WASTRES	DQYHRLPLS
12 µM	2 of 3	KSSQSVLYESRNKNQVA	WASTVES	QQEHRLPLS
610 nM	1 of 3	KSSSSVLYESRNKNSVA	WASTGES	PQYHRLPLS
190 nM	2 of 3	HSSQSVLIESRNKNSVA	WASTQES	QQYHRLPLS
530 nM	3 of 3	KSSQHVLYESRNKNNVA	WAQTRES	QQYHRLPLS
4.9 µM	1 of 3	KSSQSVLYESRNENSVA	WASTLES	QQYHRLPGS
no signal	0 of 3	KSSQSVLYESRNTNSVV	WASTRES	QQYHILPLS
8.8 nM	3 of 3	KSSQSVDYESRWKNSVA	WASTRED	QQYHRLPLS
7.0 µM	1 of 3	KSSQSVLYESRNKPSYA	WASTRES	QQYHRLRLS
200 µM	2 of 3	KSSQSVLYESRNKNSQA	WASTRES	QMYHRLRLS
14 µM	2 of 3	KSSQSVLYESRNKNSVW	WASTRES	AQYYRLPLS
no signal	0 of 3	KSSQSVLYESRNRNSVA	WAQTRES	IQYHRLPLS
240 nM	3 of 3	FSSQLVLYESRNKNSVA	WASTRES	QQYHRLPLS
31 µM	2 of 3	KSSWSVLYESRNKNSVA	WASTRES	QQYHRLILS
no signal	0 of 3	KSSQSPLYESRNKNSVA	WASTRES	QQYHELPLS
6.4 nM	3 of 3	KSSQSVLYESQNPNSVA	WTSTRES	QQYHRLPLS
6.7 µM	1 of 3	KSSQSVLYESRNKNSVA	WASTRES	QQYHYNALS
520 nM	3 of 3	KSSQSVLYEGRNKNSVA	WASTRES	QLYHRLRLS
30 nM	3 of 3	KSSQSVLYESRNKNSVA	WASTRES	RQDHRYPLS
no signal	0 of 3	KESQSVLYESRNKQSVA	WASTRES	QQIHRLPLS
1.4 nM	3 of 3	KVSQSGLYESRNKNSVA	WASTRES	QQYHRLPLN
1.0 µM	1 of 3	KSSQSVLYERRNKNSVA	WASTRET	QQYHRLTLS
no signal	0 of 3	KSSFSSLYESRNKNSVA	WASTRES	QQYHRLDLS
28 nM	3 of 3	SSGQSVLYESPNKNSVA	WASTRES	QQYHRLPLS
6.4 nM	3 of 3	KSSQSVLDESCNKNSVA	WASTREW	QQYHRLPLS
no signal	0 of 3	KSDQSVLYESRVKNSVA	WASTRES	QQYPRLPLS
no signal	0 of 3	KSLQSVLYESRNKNSVA	WASTYES	QQYHRLPSS
no signal	0 of 3	KSSQSVLYESRIKNSVA	WASTAES	HQYHRLPLS
no signal	0 of 3	KSSQSVLYESRNKNSCA	WLSTRES	QQYHRLPNS
no signal	0 of 3	KSSQSVLYESSNKKSVA	WACTRES	QQYHRLPLS
100 nM	3 of 3	KSSQSVLYESRQKNCVA	WASTRES	QQYRRLPLS
no signal	0 of 3	KSSQSVLYESRNVPSVA	WVSTRES	QQYHRLPLS
280 µM	1 of 3	KSSQSVLYEDRNKNSVF	WASHRES	QQYHRLPLS
1.1 µM	3 of 3	KSSQSVLYESRNKNSVA	WMSYRES	QQYKRLPLS

The opening 8 entries, copied out:

CDR-L1	CDR-L2	CDR-L3	apparent Kd	detected
KSSQSVLYESRNKNSVA	HASHRES	QQYHRLPRS	no signal	0 of 3
KISQSVLYDSRNKNSVA	WASTRES	QQYHRLSLS	6.8 µM	1 of 3
KISQSVLYEYRNKNSVA	WRSTRES	QQYHRLPLS	22 nM	3 of 3
KSSQSVLYESRNKPSCA	WASTRES	QQVHRLPLS	2.2 µM	1 of 3
KSSGSKLYESRNKNSVA	WASTRES	IQYHRLPLS	no signal	0 of 3
KSSQSVLYGSRNKNSVA	WASTFES	QQYHELPLS	no signal	0 of 3
KSEQSVLHETRNKNSVA	WASTRES	QQYHRLPLS	470 nM	3 of 3
KSSQPVPYESRNKYSVA	WASTRES	QQYHRLPLS	4.0 nM	3 of 3

Three control strains display no target. For library AAYL50, 18% of the pairings with them gave a signal, with a median of 15 µM and one signal in twenty below 970 nM, so weak values seen in few replicates may be background. In this assay the parent's reference entry averaged 4.4 nM; its copy inside this library read 48 nM.